The text below walks through data of PubChem BioAssay AID720553 (National Center for Advancing Translational Sciences (NCATS), 2013).

Only a part is listed here, and it is no random draw. Calls of active or inactive are those of the source.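 The calls were made as follows: active = maximum activity change below -70%; inconclusive = maximum activity change from -70% to -50%; inactive = maximum activity change above -50%.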
% is scaled to controls: 0 for no effect and ±100 for the full control effect.

In the experiment the test system is Potassium voltage-gated channel subfamily H member 2, brain isoform KCNH2 3.1 (human). The experiment can be described thus: qHTS for Inhibitors of KCHN2 3.1: Mutant qHTS. The following applies: U2OS KCNH2 3.1, thallium flux FluxOr; hits give low values. The source says: Many antipsychotic drugs that inhibit the neurotransmitter dopamine also bind to hERG1 channel which might help explain their antipsychotic activity but also produces cardiac side effects. The discovery of the novel KCNH2 3.1 isoform offers a potential new target for the development of antipsychotic drugs without cardiac side effects. This proposal will use a high throughput thallium flux assay developed for KCNH2 to screen compounds that modulate the activity of KCNH2 3.1. The wild type KCNH2 channel will also be screened in parallel to help define the selective modulators of this KCNH2 3.1 potassium channel. The resulting compounds will be validated in electrophysiology experiments. The availability of animal models will allow future testing in vivo for effects on memory and other aspects of animal physiology linked with psychosis. NIH Chemical Genomics Center [NCGC] NIH Molecular Libraries Probe Centers Network [MLPCN] MLPCN Grant: MH096539 Assay Submitter (PI): James Barrow, Johns Hopkins University, Lieber Institute for Brain Development
U2OS cells were resuspended in cell media containing 10% fetal calf serum (FCS) at a concentration of 2 million cells / mL. […] A stimulation buffer was added to the plate and the second kinetic read (2 min) was obtained. The rate constant was calculated from the kinetic reads and normalized to the positive and negative DMSO controls.
For orientation: Quantitative high-throughput screening tests each substance at several concentrations.
For `CCC(=O)N(c1ccccc1)C1(COC)CCN(CCn2nnn(CC)c2=O)CC1`, the activity change was inactive: 3.81%.
